From ChEMBL document CHEMBL1145881, “Pyridone-containing farnesyltransferase inhibitors: synthesis and biological evaluation” (Bioorg Med Chem Lett, 2003)

The chains behind the UniProt entries cited, without tags or fusion partners.
UniProt P53609, whole entry, looked up: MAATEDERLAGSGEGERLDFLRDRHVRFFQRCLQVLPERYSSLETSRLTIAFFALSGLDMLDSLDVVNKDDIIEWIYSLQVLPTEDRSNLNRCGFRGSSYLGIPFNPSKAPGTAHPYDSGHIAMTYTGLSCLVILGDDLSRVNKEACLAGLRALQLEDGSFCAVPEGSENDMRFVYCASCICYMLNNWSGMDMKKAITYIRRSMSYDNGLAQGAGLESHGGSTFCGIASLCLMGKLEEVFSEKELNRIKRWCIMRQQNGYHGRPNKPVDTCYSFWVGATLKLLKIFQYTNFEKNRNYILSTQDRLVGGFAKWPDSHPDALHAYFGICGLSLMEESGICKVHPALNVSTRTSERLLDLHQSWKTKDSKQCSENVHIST

Tests used:
Assay type in all cases: protein-complex assay
[1] = molecular target: T1, Protein farnesyltransferase (Homo sapiens, UniProt P49354+P49356); test: In vitro effective concentration against farnesyltransferase (FT)
[2] = molecular target: T1, Protein farnesyltransferase; test: In vitro inhibitory activity against farnesyltransferase (FT)
[3] = molecular target: Geranylgeranyl transferase type I (Homo sapiens, UniProt P49354+P53609); test: In vitro inhibitory activity against Geranylgeranyl transferase type I

EC50 [1]: 0.5 nM
IC50 [2]: 0.44 nM
IC50 [3]: 2700 nM
Compound: Cn1cncc1C(OCc1c(-c2cccc(Cl)c2)cc(C#N)c(=O)n1C)c1ccc(C#N)cc1 (stereo not drawn)
